{
  "sequences": {"note": "Sequences of proteins named here, by UniProt entry; tags and fusion partners are left off.", "UniProt P18901, whole entry": "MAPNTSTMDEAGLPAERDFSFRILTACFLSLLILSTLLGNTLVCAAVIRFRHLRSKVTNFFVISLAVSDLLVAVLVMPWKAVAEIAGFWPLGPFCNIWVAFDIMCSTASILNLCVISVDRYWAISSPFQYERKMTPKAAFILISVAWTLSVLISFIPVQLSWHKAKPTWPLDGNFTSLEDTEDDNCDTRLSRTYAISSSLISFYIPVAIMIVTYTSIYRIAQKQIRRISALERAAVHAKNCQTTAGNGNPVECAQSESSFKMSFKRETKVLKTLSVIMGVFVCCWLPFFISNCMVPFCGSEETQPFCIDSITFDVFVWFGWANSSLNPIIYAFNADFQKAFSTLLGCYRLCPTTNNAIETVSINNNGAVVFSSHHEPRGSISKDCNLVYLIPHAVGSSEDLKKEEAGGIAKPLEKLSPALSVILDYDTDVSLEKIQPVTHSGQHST"},
  "source": "ChEMBL document CHEMBL1131282",
  "about": "“Azepinoindole derivatives with high affinity for brain dopamine and serotonin receptors” (Bioorg Med Chem Lett, 1998)",
  "biological_target": "D(1A) dopamine receptor (Rattus norvegicus, UniProt P18901)",
  "assay": "Affinity for Dopamine receptor D1",
  "data": [
    {"smiles": "Cc1nc2n(c(=O)c1CCN1CCC(c3noc4cc(F)ccc34)CC1)CCCC2", "note": "[RISPERIDONE]", "values": [
      {"measurement": "Ki", "result": 22, "unit": "nM"}
    ]}
  ]
}
